Earlier results as cited in patent publication US7179939B2, “Sodium ferric gluconate complexes and method of manufacture thereof” (priority 2004, dated 2007).

Assays:
[1] = study comparing iron dextran with sodium ferric gluconate
[2] = patients receiving iron dextran

iron dextran
occurrence of allergic episodes [1]: 8.7 allergic episodes per million doses | significant adverse effects, share of patients [2]: approximately 26 % of patients
